Test results: US9216999B2, “Substituted pyrrolo[2,3-h][1,6]naphthyridines and compositions thereof as JAK inhibitors” (priority 2011, dated 2015)

By UniProt entry, the sequences of proteins in these tests, tags left out. Where a name states a change or a piece, a line headed by the entry shows the natural chain unless it says otherwise.
UniProt P29597: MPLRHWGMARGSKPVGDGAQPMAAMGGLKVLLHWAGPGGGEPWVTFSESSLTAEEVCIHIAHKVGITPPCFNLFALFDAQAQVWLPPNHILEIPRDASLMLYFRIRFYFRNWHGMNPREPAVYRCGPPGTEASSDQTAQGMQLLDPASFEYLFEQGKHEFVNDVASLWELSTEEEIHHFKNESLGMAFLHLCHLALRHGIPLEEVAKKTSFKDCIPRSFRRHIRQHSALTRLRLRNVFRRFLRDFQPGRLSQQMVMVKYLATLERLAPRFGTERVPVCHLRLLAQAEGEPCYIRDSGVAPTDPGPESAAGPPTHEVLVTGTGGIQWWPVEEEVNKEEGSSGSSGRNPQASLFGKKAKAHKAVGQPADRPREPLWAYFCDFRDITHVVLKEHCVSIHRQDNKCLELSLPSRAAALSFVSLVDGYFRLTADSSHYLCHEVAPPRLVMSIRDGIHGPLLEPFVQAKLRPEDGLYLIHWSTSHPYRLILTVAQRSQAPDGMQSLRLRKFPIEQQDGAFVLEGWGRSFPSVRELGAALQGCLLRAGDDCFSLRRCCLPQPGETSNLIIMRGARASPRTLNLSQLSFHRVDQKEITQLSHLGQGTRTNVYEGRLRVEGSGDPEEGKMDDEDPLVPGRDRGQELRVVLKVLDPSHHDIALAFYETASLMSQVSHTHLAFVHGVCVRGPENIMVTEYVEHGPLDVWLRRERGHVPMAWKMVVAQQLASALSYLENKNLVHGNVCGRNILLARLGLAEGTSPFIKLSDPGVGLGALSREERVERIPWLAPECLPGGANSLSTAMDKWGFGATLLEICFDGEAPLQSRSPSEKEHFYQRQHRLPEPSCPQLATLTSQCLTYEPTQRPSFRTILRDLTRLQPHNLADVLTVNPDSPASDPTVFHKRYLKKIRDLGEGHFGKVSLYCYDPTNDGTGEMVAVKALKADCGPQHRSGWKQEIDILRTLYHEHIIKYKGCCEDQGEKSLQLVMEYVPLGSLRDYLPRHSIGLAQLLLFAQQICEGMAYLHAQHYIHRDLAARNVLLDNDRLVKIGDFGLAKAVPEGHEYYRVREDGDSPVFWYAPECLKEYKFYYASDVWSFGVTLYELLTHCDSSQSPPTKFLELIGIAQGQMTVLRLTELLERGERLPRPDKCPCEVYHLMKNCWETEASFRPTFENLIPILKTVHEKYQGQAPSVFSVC
UniProt P52333: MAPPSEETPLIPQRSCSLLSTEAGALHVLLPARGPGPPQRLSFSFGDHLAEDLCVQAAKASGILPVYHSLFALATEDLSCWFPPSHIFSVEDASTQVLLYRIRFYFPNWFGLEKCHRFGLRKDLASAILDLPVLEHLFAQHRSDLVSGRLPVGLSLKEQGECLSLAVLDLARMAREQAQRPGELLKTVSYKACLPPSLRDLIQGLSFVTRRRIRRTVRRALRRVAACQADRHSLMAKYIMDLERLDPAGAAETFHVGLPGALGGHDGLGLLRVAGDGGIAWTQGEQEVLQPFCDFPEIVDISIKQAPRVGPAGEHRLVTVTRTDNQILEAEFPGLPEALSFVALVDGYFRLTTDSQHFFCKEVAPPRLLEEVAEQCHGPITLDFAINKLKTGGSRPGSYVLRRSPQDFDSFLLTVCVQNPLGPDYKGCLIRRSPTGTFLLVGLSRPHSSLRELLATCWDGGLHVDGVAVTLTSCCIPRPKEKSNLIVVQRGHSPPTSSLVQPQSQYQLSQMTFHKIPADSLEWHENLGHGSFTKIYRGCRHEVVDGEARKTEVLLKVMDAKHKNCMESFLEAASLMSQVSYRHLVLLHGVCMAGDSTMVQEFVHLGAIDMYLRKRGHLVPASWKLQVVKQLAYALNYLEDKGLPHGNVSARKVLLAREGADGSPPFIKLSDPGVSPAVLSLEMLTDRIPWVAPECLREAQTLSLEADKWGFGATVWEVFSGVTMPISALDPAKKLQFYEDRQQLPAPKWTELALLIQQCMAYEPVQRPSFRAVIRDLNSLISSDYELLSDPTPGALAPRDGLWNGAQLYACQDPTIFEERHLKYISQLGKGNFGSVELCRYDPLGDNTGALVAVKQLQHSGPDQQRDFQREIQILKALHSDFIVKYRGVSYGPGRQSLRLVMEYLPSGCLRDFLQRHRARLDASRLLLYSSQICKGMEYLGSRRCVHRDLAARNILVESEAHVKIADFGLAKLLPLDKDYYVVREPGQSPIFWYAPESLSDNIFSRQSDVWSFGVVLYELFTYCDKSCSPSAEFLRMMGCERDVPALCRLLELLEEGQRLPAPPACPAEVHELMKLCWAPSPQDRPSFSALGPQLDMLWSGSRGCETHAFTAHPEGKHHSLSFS

Experiments:
Tyk2 [1] = target: T1, Tyk2 (Homo sapiens (Human), UniProt P29597); experiment: Tyk2 enzyme assay (Assay Example^b 1)
JAK1 [2] = target: T2, JAK1 (Homo sapiens (Human), UniProt P23458); experiment: JAK1 enzyme assay (Assay Example^b 1); settings: IC50 (μM) JAK1, Table^b 78; ATP 100 μM
JAK2 [3] = target: T3, JAK2 (Homo sapiens (Human), UniProt O60674); experiment: JAK2 enzyme assay (Assay Example^b 1)
JAK2 [4] = target: T3, JAK2; experiment: Enzyme assay (Assay Example^a 1), JAK2; type: biochemical; settings: ATP 100 μM, read-out: IC50 (μM) JAK2
Tyk2 [5] = target: T1, Tyk2; experiment: Enzyme assay (Assay Example^a 1), Tyk2; type: biochemical
JAK3 [6] = target: T4, JAK3 (Homo sapiens (Human), UniProt P52333); experiment: Enzyme assay (Assay Example^a 1), JAK3; type: biochemical; settings: read-out: IC50 (μM) JAK3
JAK3 [7] = target: T4, JAK3; experiment: JAK3 enzyme assay (Assay Example^b 1); settings: ATP 100 μM
JAK1 [8] = target: T2, JAK1; experiment: Enzyme assay (Assay Example^a 1), JAK1; type: biochemical; settings: ATP 100 μM
[9] = IC50 (μM) TYK2, Table^b 79, ATP 100 μM
[10] = IC50 (μM) JAK2, Table^b 79, ATP 100 μM
[11] = IC50 (μM) TYK2, Table^b 80, ATP 100 μM

CC(C)CS(=O)(=O)N1CC[C@@H](C)[C@@H](n2ccc(=O)c3cnc4[nH]ccc4c32)C1 (racemic) [compound 10]
IC50 (Tyk2 [1]; [9]): 1.6 µM
IC50 (JAK1 [2]): 0.0081 µM
IC50 (JAK2 [3]; [10]): 0.039 µM

C[C@@H]1CCN(S(=O)(=O)CC(F)(F)F)C[C@@H]1n1ccc(=O)c2cnc3[nH]ccc3c21 (racemic) [compound 11]
IC50 (Tyk2 [1]; [9]): 0.44 µM

C[C@@H]1CCN(Cc2ccccc2)C[C@@H]1n1ccc(=O)c2cnc3[nH]cc(Cl)c3c21 (racemic) [compound 22]
IC50 (Tyk2 [1]; [11]): > 1 µM

C[C@@H]1CCN(Cc2ccccc2)C[C@@H]1n1cc(Br)c(=O)c2cnc3[nH]ccc3c21 (racemic) [compound 24]
IC50 (Tyk2 [1]; IC50 (μM) TYK2): > 1 µM

C[C@@H]1CCN(C(=O)Cc2ccc(F)cc2)C[C@@H]1n1ccc(=O)c2cnc3[nH]ccc3c21 (racemic) [compound 32]
IC50 (Tyk2 [1]; [11]): > 1 µM

c1ccc(CCN[C@H]2CC[C@H](c3nnn4cnc5[nH]ccc5c34)CC2)cc1 [135b]
IC50 (JAK2 [4]; Table^a 154): 0.094 µM
IC50 (Tyk2 [5]; ATP 100 μM, Table^a 154): 0.18 µM

Fc1ccc(N[C@H]2CC[C@@H](c3nnn4cnc5[nH]ccc5c34)CC2)cc1 [381a, N-[cis-4-(7H-pyrrolo[3,2-e][1,2,3]triazolo[1,5-c]pyrimidin-1-yl)cyclohexyl]-4-fluoroaniline]
IC50 (JAK2 [4]): 0.22 µM
IC50 (JAK3 [6]): 0.26 µM
IC50 (Tyk2 [5]; ATP 100 μM): > 1 µM

Fc1ccc(N[C@H]2CC[C@H](c3nnn4cnc5[nH]ccc5c34)CC2)cc1 [381b, N-[trans-4-(7H-pyrrolo[3,2-e][1,2,3]triazolo[1,5-c]pyrimidin-1-yl)cyclohexyl]-4-fluoroaniline]
IC50 (JAK2 [4]): 0.057 µM
IC50 (JAK3 [6]): 0.42 µM
IC50 (Tyk2 [5]; ATP 100 μM): 0.24 µM

CN(CC(F)(F)F)C[C@H]1CC[C@H](n2c(=O)[nH]c(=O)c3cnc4[nH]ccc4c32)CC1 [Synthetic Example^b 136, 1-(trans-4-{[Methyl(2,2,2-trifluoroethyl)amino]methyl}cyclohexyl)-1H-pyrrolo[3′,2′:5,6]pyrido[4,3-d]pyrimidine-2,4(3H,7H)-dione]
IC50 (Tyk2 [1]; IC50 (μM) TYK2, ATP 100 μM): 0.32 µM
IC50 (JAK2 [3]; IC50 (μM) JAK2, ATP 100 μM): 0.051 µM

O=c1ccn(C2CCCCC2)c2c1cnc1[nH]ccc12 [compound 3]
IC50 (Tyk2 [1]; [9]): 0.13 µM
IC50 (JAK2 [3]; [10]): 0.15 µM

O=c1ncc2cnc3[nH]ccc3c2n1C1CCCCC1 [compound 18]
IC50 (JAK3 [7]; IC50 (μM) JAK3, Table^b 78): 1.2 µM
IC50 (JAK1 [2]): 0.045 µM

O=c1ccn(C2CCCCC2)c2c1cnc1[nH]cnc12 [compound 20]
IC50 (JAK3 [7]; IC50 (μM) JAK3, Table^b 78): 0.51 µM
IC50 (JAK2 [3]; [10]): 1.6 µM

CC(C)(C)OC(=O)N1CCC(c2nnn3cnc4[nH]ccc4c23)CC1 [compound 24]
IC50 (Tyk2 [5]): 5.3 µM

c1cc2c(ncn3nnc(C4CCNCC4)c23)[nH]1 [compound 27]
IC50 (JAK3 [6]): > 1 µM
IC50 (Tyk2 [5]): > 1 µM

N#Cc1ccc(CN2CCC(c3nnn4cnc5[nH]ccc5c34)CC2)c(F)c1 [compound 40]
IC50 (Tyk2 [5]): 0.15 µM

O=c1[nH]c(=O)n(C2CCCCC2)c2c1cnc1[nH]ccc12 [compound 53]
IC50 (JAK3 [7]; IC50 (μM) JAK3, Table^b 80): 0.047 µM
IC50 (JAK2 [3]; IC50 (μM) JAK2, Table^b 80, ATP 100 μM): 0.048 µM

FC(F)(F)Oc1ccc(CNC[C@H]2CC[C@H](c3nnn4cnc5[nH]ccc5c34)CC2)cc1 [compound 110]
IC50 (JAK3 [6]): 0.51 µM
IC50 (Tyk2 [5]; ATP 100 μM, Table^a 154): 0.0049 µM

O=c1[nH]c(=O)n([C@H]2CC[C@H](CN3CC[C@@H](O)C3)CC2)c2c1cnc1[nH]ccc12 [compound 112]
IC50 (Tyk2 [1]; IC50 (μM) TYK2, ATP 100 μM): 0.032 µM

O=c1[nH]c(=O)n(C2CCC(CNCC3CC3)CC2)c2c1cnc1[nH]ccc12 (centres unmarked) [compound 117]
IC50 (Tyk2 [1]; IC50 (μM) TYK2, ATP 100 μM): 0.8 µM
IC50 (JAK2 [3]; IC50 (μM) JAK2, ATP 100 μM): 0.85 µM

O=C(CC(F)(F)F)N(CC(F)(F)F)C[C@H]1CC[C@H](n2c(=O)[nH]c(=O)c3cnc4[nH]ccc4c32)CC1 [compound 155]
IC50 (Tyk2 [1]; IC50 (μM) TYK2, ATP 100 μM): 0.14 µM

N#Cc1ccc(CN2CCC(c3ncn4cnc5[nH]ccc5c34)CC2)cc1 [compound 210, 4-{[4-(7H-Imidazo[1,5-c]pyrrolo[3,2-e]pyrimidin-1-yl)piperidin-1-yl]methyl}benzonitrile]
IC50 (JAK3 [6]; ATP 100 μM, Table^a 154): 0.077 µM
IC50 (Tyk2 [5]; ATP 100 μM, Table^a 154): 0.29 µM
IC50 (JAK1 [8]; Table^a 154): 0.0047 µM

O[C@@H]1CCN(C[C@H]2CC[C@H](c3nnn4cnc5[nH]ccc5c34)CC2)C1 [compound 267, (R)-1-{[trans-4-(7H-pyrrolo[3,2-e][1,2,3]triazolo[1,5-c]pyrimidin-1-yl)cyclohexyl]methyl}pyrrolidin-3-ol]
IC50 (JAK2 [4]): 0.032 µM
IC50 (JAK3 [6]): 0.79 µM
IC50 (Tyk2 [5]; ATP 100 μM): 0.019 µM
IC50 (JAK1 [8]): 0.001 µM

c1cc2c(ncn3nnc([C@H]4CC[C@H](CNC[C@H]5CCCO5)CC4)c23)[nH]1 [compound 289, 1-[trans-4-(7H-pyrrolo[3,2-e][1,2,3]triazolo[1,5-c]pyrimidin-1-yl)cyclohexyl]-N-{[(R)-tetrahydrofuran-2-yl]methyl}methanamine]
IC50 (JAK3 [6]): 0.85 µM
IC50 (Tyk2 [5]; ATP 100 μM): 0.16 µM

O=C[C@H]1CC[C@@H](c2nnn3cnc4[nH]ccc4c23)CC1 [compound 402, cis-4-(7H-Pyrrolo[3,2-e][1,2,3]triazolo[1,5-c]pyrimidin-1-yl)cyclohexanecarbaldehyde]
IC50 (JAK2 [4]): 0.03 µM
IC50 (JAK3 [6]): 0.13 µM
IC50 (Tyk2 [5]; ATP 100 μM): 0.1 µM
IC50 (JAK1 [8]): 0.011 µM

O[C@H]1CCN(C[C@H]2CC[C@@H](c3nnn4cnc5[nH]ccc5c34)CC2)C1 [compound 404, (S)-1-{[cis-4-(7H-pyrrolo[3,2-e][1,2,3]triazolo[1,5-c]pyrimidin-1-yl)cyclohexyl]methyl}pyrrolidin-3-ol]
IC50 (JAK2 [4]): 0.35 µM
IC50 (JAK3 [6]): 0.32 µM
IC50 (Tyk2 [5]; ATP 100 μM): > 1 µM
IC50 (JAK1 [8]): 0.11 µM

O[C@@H]1CCN(C[C@H]2CC[C@@H](c3nnn4cnc5[nH]ccc5c34)CC2)C1 [compound 405, (R)-1-{[cis-4-(7H-pyrrolo[3,2-e][1,2,3]triazolo[1,5-c]pyrimidin-1-yl)cyclohexyl]methyl}pyrrolidin-3-ol]
IC50 (JAK2 [4]): 0.25 µM
IC50 (JAK3 [6]): > 1 µM
IC50 (Tyk2 [5]; ATP 100 μM): 0.77 µM
IC50 (JAK1 [8]): 0.025 µM
